Consider one compound from paper PMC7737621 (Journal of medicinal chemistry, 2020).

Where a name gives a salt, the structure may show the parent alone.

This data set can be described thus: physchem. The following applies: pH 7.4.

In turn, `CCCC(C)COc1ccc([C@H](Cc2nnc(N)o2)NC(=O)[C@@H](C)c2ccccc2)cc1` (stereo partly drawn) [Compound 84, (2S)-N-[(1S)-2-(5-Amino-1,3,4-oxadiazol-2-yl)-1-{4-[(2-methylpentyl)oxy]phenyl}ethyl]-2-phenylpropanamide Hydrochloride] showed a kinetic solubility of under 1 µM.
